Among the data in patent US9353075B2, “Disubstituted beta-lactones as inhibitors of N-acylethanolamine acid amidase (NAAA)” (The Regents of the University of California, priority 2011, dated 2016) are IC50 values, retold here.

The chains behind the UniProt entries cited, without tags or fusion partners. Residues count along the entry.
UniProt Q02083, 29-359: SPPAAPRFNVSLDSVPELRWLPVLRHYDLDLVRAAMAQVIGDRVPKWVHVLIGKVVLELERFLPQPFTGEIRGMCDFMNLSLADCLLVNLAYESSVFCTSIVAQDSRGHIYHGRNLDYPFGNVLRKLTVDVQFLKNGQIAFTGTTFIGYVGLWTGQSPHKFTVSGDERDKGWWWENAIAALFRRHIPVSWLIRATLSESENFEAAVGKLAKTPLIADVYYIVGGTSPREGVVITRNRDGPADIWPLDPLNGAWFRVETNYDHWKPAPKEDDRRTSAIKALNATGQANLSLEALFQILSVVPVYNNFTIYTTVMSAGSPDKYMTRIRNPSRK
UniProt Q5KTC7, 34-362: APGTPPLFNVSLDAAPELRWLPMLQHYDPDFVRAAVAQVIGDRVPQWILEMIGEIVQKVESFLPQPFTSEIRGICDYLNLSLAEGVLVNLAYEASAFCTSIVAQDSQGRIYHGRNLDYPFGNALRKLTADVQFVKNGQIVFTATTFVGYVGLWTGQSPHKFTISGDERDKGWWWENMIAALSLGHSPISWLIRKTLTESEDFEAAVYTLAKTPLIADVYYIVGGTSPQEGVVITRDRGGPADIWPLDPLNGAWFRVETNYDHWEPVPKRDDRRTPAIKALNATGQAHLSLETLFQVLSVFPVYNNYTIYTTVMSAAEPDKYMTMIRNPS

The structures appear in SMILES notation.

For one experiment, the target named is h-NAAA (Homo sapiens (Human), UniProt Q02083). Description: Fluorogenic h-NAAA assay. It counts as biochemical. The procedure:
The assay was run in Optiplate 96-wells black plates, in a total reaction volume of […]. NAAA protein preparations (4 ng) were pre-incubated for 10 minutes with various concentrations of test compounds or vehicle control (5% DMSO) in 100 mM citrate/phosphate buffer (pH 4.5) containing 3.0 mM DTT, 0.1% Triton X-100, 0.05% BSA, 150 mM NaCl. N-(4-methyl-2-oxo-chromen-7-yl)-hexadecanamide was used as a substrate (5.0 μM) and the reaction carried over for 30 minutes at 37° C. Fluorescence in the samples was quantified in a Perkin Elmer Envision plate reader using an excitation wavelength of 360 nm and emission 460 nm. IC50 values were calculated by non-linear regression analysis of log [concentration]/inhibition curves using GraphPad Prism 5 (GraphPad Software Inc., CA—USA) applying a standard slope curve fitting.
The assay was run in Optiplate 96-wells black plates, in a total reaction volume of 200 μL. […] The samples were then read in a Perkin Elmer Envision plate reader using an excitation wavelength of 360 nm and emission 460 nm. IC50 values were calculated by non-linear regression analysis of log [concentration]/inhibition curves using GraphPad Prism 5 (GraphPad Software Inc., CA—USA) applying a standard slope curve fitting.

The next experiment has as its target r-NAAA (Rattus norvegicus (Rat), UniProt Q5KTC7). Nature of the experiment: r-NAAA inhibition, rat lung lysosomal NAAA preparation, UPLC/MS. The experiment is classed as biochemical. The procedure: Lysosomal NAAA protein preparation were obtained by homogenizing male Sprague-Dawley rat lungs (Charles River) in 20 mM Tris-HCl buffer pH 7.4 containing 0.32M sucrose. Samples were centrifuged at 800×g for 15 minutes at 4° C. Supernatants were then centrifuged at 12,000 g for 30 minutes at 4° C. Pellets were then resuspended in PBS pH 7.4 and subjected to a freeze/thaw cycle at −80° C. The suspension was finally centrifuged at 105,000×g for 1 hour at 4° C. The supernatant was then used in the enzymatic assay.
NAAA protein preparation was pre-incubated with various concentrations of test compounds or vehicle control in 100 mM NaH2PO4/Citrate buffer, 1% Triton-X, 3 mM DTT (pH 4.5) for 30 minutes at 37° C. Samples were then incubated with heptadecenoylethanolamide (50 μM, Avanti Polar Lipids) at 37° C. for 30 min. […] Samples were then analyzed by UPLC/MS (Acquity, Waters). […] The [M−H]^− ion was monitored in the selected-ion monitoring mode (m/z values: heptadecenoic acid 267.37, heptadecanoic acid 269.37). […] Inhibition of NAAA activity was calculated as reduction of heptadecenoic acid in the samples compared to vehicle controls. IC50 values were calculated by non-linear regression analysis of log [concentration]/inhibition curves using GraphPad Prism 5 (GraphPad Software Inc., CA—USA) applying a standard slope curve fitting.

Consider `CC(C)[C@H]1OC(=O)[C@@H]1NC(=O)OCCCCCc1ccccc1` (relative stereo) [Example 51, 5-Phenylpentyl-N-[(2R*,3R*)-2-isopropyl-4-oxo-oxetan-3-yl]-carbamate], for which, at h-NAAA, 19 nM corresponded to half-maximal inhibition (IC50).
Same read-out and setting: the value for `CC(C)[C@@H]1OC(=O)[C@@H]1NC(=O)OCCCCCc1ccccc1` (relative stereo) [Example 53, 5-Phenylpentyl-N-[(2S*,3R*)-2-isopropyl-4-oxo-oxetan-3-yl]-carbamate] was 68 nM.
`C[C@@H]1OC(=O)[C@@H]1NC(=O)OCC(C)(C)CCc1ccccc1` [Example 20, (2,2-dimethyl-4-phenyl-butyl)-N-[(2S,3R)-2-methyl-4-oxo-oxetan-3-yl]-carbamate] registered an IC50 at r-NAAA of 3430 nM. In other words, the single-digit micromolar range.
On the same count and under the same terms, the value for `C[C@@H]1OC(=O)[C@@H]1NC(=O)OC1CCCCC1` [Example 29, Cyclohexyl-N-[(2S,3R)-2-methyl-4-oxooxetan-3-yl]-carbamate] was 5420 nM.
